# Screening results as filed in PubChem.
# EPAC1 antag: antagonists of human EPAC1 | Potency, µM (highest dose often 115 µM), for inactives: at the highest dose activity change, negative = inhibition, usual class: inhibitors | EPAC1 GEF assay, Rap1b-BODIPY-GDP exchange fluorescence | O95398 | 0.14% of 360,000 active;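 also: plate controls were vehicle for no effect and positive control for full effect; nearly all actives have a fitted effect of over 50% in size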
# EPAC2 agonist: activates human EPAC2 exchange factor. EPAC2 activation, biochemical qHTS; response scale: 100% = 6.5 mM cAMP response. Q8WZA2. Potency, µM (doses to about 154 µM), inactives show top-dose activation, actives largely listed as activators. AID 720711. 0.079% of 360,000 active; also: nearly all actives have a fitted effect of over 50% in size
#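 EPAC2 (100 nM) mixed with Rap1B loaded with BODIPY-GDP (250 nM) plus 50 uM unlabeled GDP; compounds pinned in, 5 min RT, then read every 5 min for 30 min (ex 480, em 540 nm). Normalized to cAMP control.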
# Rango dissoc inh: prevents RanGTP from dissociating the Rango-importin beta complex | AID 540253 | Biochemical FRET Rango-importin beta, RanGTP-induced dissociation | 0.071% of 340,000 active | O95149+P62826 | Potency, µM (highest dose often 46.1 µM), without a hit: at the highest dose activity change, negative = inhibition; calls by dose curve; also: % of control where 0% means no effect; nearly all actives have a fitted effect of over 45% in size
#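 Compounds sat 5 min at room temperature with 0.1 uM Rango biosensor plus 0.25 uM importin beta, then FRET pre-read. RanGTP-RCC1 (0.6 uM Ran, 2mM GTP, 0.2 uM RCC1) added for 45 min, and the CFP/YFP post-read measured blocked complex dissociation.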
# EPAC1 ag: EPAC1 (human) agonism; AID 720707; EPAC1 agonist qHTS, biochemical assay; response scale: 100% = response to 6.5 mM cAMP; Potency, µM (doses to about 154 µM), for the others: top-dose activation, hits mostly activators; O95398; 0.073% of 360,000 active; also: nearly all actives have a fitted effect of over 60% in size
#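 Multi-concentration qHTS readout: loss of Rap1B-bound BODIPY-GDP fluorescence driven by 100 nM EPAC1 with excess GDP (50 uM), monitored kinetically at room temperature; agonist response expressed relative to 6.5 mM cAMP.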
# EPAC2 antagonist: EPAC2 (human) antagonism; EPAC2 GEF exchange of Rap1B-BODIPY-GDP, fluorescence; Potency, µM (titrated, usually from 114 µM), without a hit: at the top dose activity, negative = inhibition, hits mostly inhibitors; 0.18% of 360,000 active; AID 720708; also: % is scaled to controls: 0 for no effect and ±100 for the full control effect; nearly all actives have a fitted effect of over 45% in size
# Rango-impB inh: prevents formation of the Rango-importin beta complex; Rango CFP/YFP FRET sensor + importin beta, 45 min; Potency, µM (top dose mostly 92.2 µM), without a hit: top-dose inhibition of complex formation; Q14974; 0.031% of 340,000 active; calls by dose curve;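 also: 0% = DMSO wells and 100% = buffer wells lacking importin beta; nearly all actives have a fitted effect of over 15% in size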
#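 Inhibition scored from the CFP 486 nm/YFP 530 nm FRET ratio 45 min after adding 0.125 microM importin beta to 50 nM Rango biosensor preincubated 5 min with compound (room temperature, PBS with DTT, Tween-20, BSA). No-importin wells as positive control.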
# * = called active by the depositor; ? = inconclusive; / = not tested or not shown; [ ] = another dose, or the depositor's remark. Hits are enriched below; roughly 0.48% of the tested compounds scored in any of these assays. Unless noted, calls follow the shape of the dose curve; as a rule, active = well fitted curve in the direction sought with a large enough effect; inconclusive = small, poorly fitted or top-dose-only effect, or another doubt; inactive = no such curve, though single readings can be large; an effect the other way counts as inactive or inconclusive. Potency is read from the fitted curve at half-maximal effect.
[1] CCC(C)n1c(=N)c(C#N)cc2c(=O)n3ccccc3nc21 (stereo unspecified)
[2] CS(=O)(=O)C1=NSC2=NC(=O)/C(=C\c3cccn3-c3ccc(Cl)cc3)C(=N)N21
[3] Cc1cccc(N(CC(=O)NC(C)(C)C)C(=O)CS(=O)CC(=O)Nc2ccc(F)cc2)c1 (stereo unspecified)
[4] C/C(CC(=O)Nc1ccc2ccccc2c1)=N\NC(=O)c1cnccn1
[5] COC(=O)c1cc(Cl)ccc1NCC(N)c1ccccc1 (stereo unspecified)
[6] CSC1=NSC2=NC(=O)/C(=C/c3coc4ccccc4c3=O)C(=N)N12
[7] CC1=CC2=NC(=O)/C(=C/c3coc4ccc(Cl)cc4c3=O)C(=N)N2O1
[8] N=C1/C(=C\c2coc3ccccc3c2=O)C(=O)N=C2SC=CN12
Assay by compound	1	2	3	4	5	6	7	8
EPAC1 antag	7%	35µM*	-6%	55%	-7%	76%	16%	60%
EPAC2 agonist	56µM*	-8%	-8%	-1%	7%	89µM*	?	112µM*
Rango dissoc inh	?	?	10%	-7%	/	?	?	?
EPAC1 ag	-7%	9%	-8%	40µM*	6%	100µM*	?	89µM*
EPAC2 antagonist	87%	-17%	3%	-6%	7%	93%	46%	157%
Rango-impB inh	?	?	-1%	4%	/	?	?	?

[9] CSC1=NSC2=NC(=O)/C(=C/c3coc4ccc(O)cc4c3=O)C(=N)N12
[10] N=C1/C(=C/c2cccs2)C(=O)N=C2SN=C(SCc3ccccc3)N12
[11] COc1ccc(-c2nc(CS(=O)CC(=O)NC3CCCCC3C)c(C)o2)cc1 (stereo unspecified)
[12] CCOC(=O)c1sc2nc3c(SCC(=O)O)cc(C(=O)c4cc(F)ccc4O)cn3c(=O)c2c1C
[13] CCOC(=O)c1sc2nc3c(SCC(=O)O)cc(C(=O)c4ccccc4O)cn3c(=O)c2c1C
[14] NS(=O)(=O)c1cc2c(cc1Cl)NC(Cc1ccccc1)NS2(=O)=O (stereo unspecified)
[15] NS(=O)(=O)c1cc2c(cc1Cl)NC(CC1CCCC1)NS2(=O)=O (stereo unspecified)
[16] O=C(NC12CC3CC(CC(C3)C1)C2)c1cncc(Br)c1
Assay by compound	9	10	11	12	13	14	15	16
EPAC1 antag	165%	79µM*	3%	8.9µM*	-1%	1%	-23%	-7%
EPAC2 agonist	100µM*	-2%	1%	13%	3%	17%	9%	2%
Rango dissoc inh	?	-16%	11%	?	?	-13%	-6%	22%
EPAC1 ag	79µM*	5%	1%	89µM*	5%	4%	13%	2%
EPAC2 antagonist	419%	0%[57.1 µM]	-3%	?	11%	7%	7%	-4%
Rango-impB inh	?	-1%	0%	?	?	1%	58µM*	3%

[17] Cc1ccc(C(CCN(Cc2ccccc2)C(=O)c2ccco2)c2ccco2)cc1 (stereo unspecified)
[18] O=C(c1ccco1)N(CCC(c1ccccc1)c1ccco1)Cc1ccco1 (stereo unspecified)
[19] O=C(CN1C(=O)/C(=C2/SC(=S)N(CCS(=O)(=O)O)C2=O)c2ccccc21)Nc1cccc(C(F)(F)F)c1
[20] O=C(CN1C(=O)/C(=C2\SC(=S)N(CCS(=O)(=O)O)C2=O)c2ccccc21)Nc1cccc(Br)c1
[21] COc1c2ccccc2nn1C(C)C
[22] COC(=O)C[C@H]1CC[C@@H]2[C@H](COC[C@H](O)CN2S(=O)(=O)c2ccccc2OC)O1
[23] CC(C)NC(=O)N(C)C[C@H]1OCCCC[C@H](C)Oc2ccc(NS(=O)(=O)c3ccccc3)cc2C(=O)N([C@H](C)CO)C[C@H]1C
[24] O=C1c2ccccc2C(=O)N1c1nc(-c2cccs2)cs1
Assay by compound	17	18	19	20	21	22	23	24
EPAC1 antag	50µM*	?	40µM*	?	9%	-4%	-5%	?
EPAC2 agonist	-2%	-2%	-6%	-1%	2%	-4%	10%	10%
Rango dissoc inh	-5%	-3%	-3%	11%	/	/	/	-12%
EPAC1 ag	0%	8%	0%	-3%	2%	-1%	3%	8%
EPAC2 antagonist	?	-15%	56µM*	?	7%	?	4%	56µM*
Rango-impB inh	-3%	?	?	-4%	/	/	/	0%

[25] CN1CCN(c2nc(-c3cccs3)cs2)CC1
[26] CCOC(=O)CC(=O)CSc1nc2ccc(C)cc2cc1C#N
[27] CCCCCCCCN1C(=O)[C@H](CC(=O)NCCC(C)C)C[C@@]2(C(=O)OCC)CCC=C12
[28] O=C(CN1CCN(Cc2cccc(Cl)c2)C1=O)NCc1ccccn1
[29] CCOc1ccc(S(=O)(=O)Nc2nc3ccccc3nc2-n2ccc(=NC(=O)c3cccs3)cc2)cc1
[30] CCOC(=O)c1c(NC(=O)/C=C/c2ccc3c(c2)OCO3)sc(C)c1CC
[31] Cc1ccc(Oc2ccc(S(=O)(=O)Nc3ccc(C(=O)O)cc3)cc2)cc1
[32] Cc1ccc(Sc2ccc(S(=O)(=O)Nc3ccc(C(=O)O)cc3)cc2)cc1C
Assay by compound	25	26	27	28	29	30	31	32
EPAC1 antag	-4%	10%	-12%	16%	-14%	-1%	10%	71µM*
EPAC2 agonist	1%	100µM*	-14%	20%	100µM*	6.3µM*	-1%	-3%
Rango dissoc inh	-14%	?	/	-1%	-23%	?	16%	19%
EPAC1 ag	7%	?	-20%	8%	?	-13%	-19%	-6%
EPAC2 antagonist	-5%	36%	-16%	1%	41%	11%	-14%	?
Rango-impB inh	-4%	?	/	2%	?	?	-1%	-1%

[33] Cc1cc(Br)cn2c(Cc3ccsc3)c(C(C)(C)C)nc12
[34] CC1(C(=O)NS(=O)(=O)c2ccc(Br)cc2)CCN1C(=O)c1cccc(F)c1 (stereo unspecified)
[35] COc1ccc(Cc2c(-c3cccc(Cl)c3)nc3ccc(Cl)cn23)c(C)c1
[36] CC(=O)NC(c1ccc(Cl)cc1)c1ccc2cccnc2c1O (stereo unspecified)
[37] CC(=O)NC(c1ccccc1)c1cc(Cl)c2cccnc2c1O (stereo unspecified)
[38] CCC(=O)NC(c1ccc(C)cc1)c1ccc2cccnc2c1O (stereo unspecified)
[39] CCCC(=O)NC(c1ccc(C(C)C)cc1)c1ccc2cccnc2c1O (stereo unspecified)
Assay by compound	33	34	35	36	37	38	39
EPAC1 antag	3%	-6%	16%	-12%	1%	-25%	-7%
EPAC2 agonist	15%	-2%	10%	9%	7%	-1%	-4%
Rango dissoc inh	/	/	/	25%	-1%	-10%	-2%
EPAC1 ag	3%	-3%	-11%	-2%	-2%	-6%	9%
EPAC2 antagonist	-6%	1%	?	20µM*	40µM*	16µM*	0%
Rango-impB inh	/	/	/	-1%	1%	-3%	1%
